## AlphaSeq binding of Ab-14 heavy chain variants to a spike HR2 peptide

All variants were tested on one target, the spike HR2 peptide PDVDLGDISGINAS (SARS-CoV-2).

The variants keep the light chain, the linker and the frameworks of Ab-14 (scFv order VH, a (GGGGS)3 linker, VL).
VH: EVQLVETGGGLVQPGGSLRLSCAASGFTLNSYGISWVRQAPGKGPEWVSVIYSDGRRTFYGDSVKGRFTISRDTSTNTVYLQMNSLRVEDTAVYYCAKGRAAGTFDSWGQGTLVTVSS
VL: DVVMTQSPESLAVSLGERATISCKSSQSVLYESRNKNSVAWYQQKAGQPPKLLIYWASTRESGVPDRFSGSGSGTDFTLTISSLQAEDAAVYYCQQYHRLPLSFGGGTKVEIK

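Phage display of a naive human antibody library on the peptide gave the parent. The variants were designed computationally from a first round of random CDR variants and then made and measured. Their group label is 14H_En_Gibbs (En: ensemble of fine-tuned language models; Gibbs: Gibbs sampling). In AlphaSeq, yeast of one mating type display the scFv and yeast of the other type display the target. After mating in shaken culture at 30 °C for 16 h, diploids were selected and their barcode pairs sequenced. Each replicate has its own calibration line, from reference interactions of the BCL2 family. Mating was done six times.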

Variants are written as CDR1, CDR2 and CDR3 of the heavy chain (limits as in the source). Parent: GFTLNSYGIS, VIYSDGRRTFYGDSVK, GRAAGTFDS.
Affinities are written as log10 Kd with Kd in nM; a lower number is a better binder.
Averages over replicates are reported, and they cover detected replicates only.
"ND" means that the variant was in the library but no mating with the target was seen in that replicate; the authors take this as a sign of poor binding, and no number exists.
Values of this round are not directly comparable with the first-round values of the same sequences.
In the paper, a design with two or fewer of six values counts as a poor binder.
As a blank, each scFv also met three strains without target: over all heavy chain designs, 1% of these pairings were detected, typically at 2.08 and seldom below 0.84. For each scFv, signals with the empty controls are counted beside the result, with their mean in brackets.
The parent sequence was in this pool as ten entries: three were never detected, three once, and four in most replicates, with averages from 0.34 to 2.37.

| CDR-H1 | CDR-H2 | CDR-H3 | log10 Kd (nM) by replicate | mean log10 Kd (nM) | control signals |
|---|---|---|---|---|---|
| GFQLDEVGIS | VIYADGIRRAYASKVK | GGDGASFDL | ND / ND / ND / ND / 2.96 / ND | 2.96 | 1 of 18 (2.50) |
| GFQINEYGIS | VIYADGLRAAYSQEVK | GQDTGNFVD | 1.16 / ND / ND / ND / 3.26 / ND | 2.21 | 0 of 18 |
| GFDIEDYGIS | VIYADGKRSAYSNSFK | GLMAGNMGV | ND / ND / ND / ND / ND / ND | ND | 0 of 18 |
| GFDLQEYGIS | VIYADGARKSYTNSVK | GVVGATMDV | ND / 2.40 / ND / ND / ND / ND | 2.40 | 0 of 18 |
| GFNLQEYGIS | VIYADGSRVVYQEKVK | GFSAGNFDT | ND / ND / ND / ND / ND / ND | ND | 0 of 18 |
| GFEIEEYGIS | VIYADGVRTMYTDNVK | GDILGLALT | 1.57 / ND / ND / ND / ND / 2.23 | 1.90 | 0 of 18 |
| GKDLQEYGIS | VIYADGKREQYAGSVK | GGLTGQFTV | ND / ND / ND / ND / ND / ND | ND | 0 of 18 |
| GFALDEYGIS | VIYADGTRSAYIETVK | GHSGADFIV | ND / ND / ND / ND / ND / ND | ND | 0 of 18 |
| GDVLKEYGIS | VIYADGMRTSYVQDVK | GQKGGSYSV | ND / ND / ND / 2.11 / ND / ND | 2.11 | 0 of 18 |
| GFNLNEYGIS | VIYADGNRNAYANSFK | GLHNNFFII | ND / ND / ND / ND / ND / ND | ND | 1 of 18 (1.63) |
| GFDLDNEGIS | VIYADGIRTQYQDSVK | GQNVATFDV | ND / ND / ND / ND / ND / ND | ND | 0 of 18 |
| GYDIQDYGIS | VIYADGVRTAYHDSVK | GQMAGFFIL | ND / ND / ND / ND / ND / ND | ND | 1 of 18 (1.70) |
| GFSLDDYGIS | VIYADGMRKAYVDEVK | GYVAGTFDI | -0.43 / -0.35 / 0.10 / -0.15 / -0.24 / 0.24 | -0.14 | 1 of 18 (1.14) |
| GMNLDEYGIS | VIYADGKRCQYANTVK | GELAGFFML | ND / ND / ND / ND / ND / ND | ND | 0 of 18 |
| GFDINEYGIS | VMYADGSRVVYQDNVK | GFQGGTFDM | 1.90 / 1.51 / 2.05 / ND / 1.80 / 1.47 | 1.75 | 0 of 18 |
| GFALDEYGIS | VIYADGSRSAYTSSVK | GVHNGDVNI | ND / ND / ND / ND / ND / ND | ND | 0 of 18 |
| GFDLQEYGIS | VIYADGHRTAYTNKVK | GGESMISVT | ND / ND / ND / ND / ND / ND | ND | 0 of 18 |
| GFDIEEYGIS | VIYADGSRTVYSDSVK | SGRTFNMDL | ND / ND / ND / ND / ND / ND | ND | 0 of 18 |
| GFQLDEYGIS | VIYADGQRTAYKQKVK | GSDTGLMWF | ND / ND / ND / ND / ND / ND | ND | 0 of 18 |
| GFNLGEYGIS | VIYADGRRTFYINSVK | GEFIVMGVD | ND / ND / ND / ND / ND / ND | ND | 0 of 18 |
| GFDLNEYGVS | VIYADGSRSAYTSSVK | GVHNGDIMI | ND / ND / ND / ND / ND / ND | ND | 0 of 18 |
| GFNLSEYGIS | VIYADGKKTQYSNAVK | GANGGTFNV | ND / ND / ND / ND / ND / ND | ND | 0 of 18 |
| GFSLDEYGIS | VIYADGIRQHYSDQVK | GVKFGNVIF | ND / ND / ND / ND / ND / ND | ND | 0 of 18 |
| GFDLEEYGIS | VIYADGRRVSYAQNVK | GVYSGTHYV | ND / ND / ND / ND / ND / ND | ND | 0 of 18 |
| GQDLNEYGIS | VIYADGLRQAYSENVK | GNIFQFDDV | ND / ND / ND / ND / ND / ND | ND | 0 of 18 |
| GFALTEYGIS | VIYADGRRTAYSQSVK | GLNGGIIVV | ND / ND / ND / ND / ND / ND | ND | 0 of 18 |
| GFDLGEYGIS | VIYADGMRSAYTDKVK | GKGANIVKH | ND / ND / ND / ND / ND / ND | ND | 0 of 18 |
| GYDLDQYGIS | VIYADGMRSVYADSVK | GHEGDILYV | ND / ND / ND / ND / ND / ND | ND | 0 of 18 |
| GFDLEKYGIS | VIYADGKRVAYTDDVK | GVTGGMLMS | ND / ND / ND / ND / ND / ND | ND | 0 of 18 |
| GFDLVEYGIS | VIYADGIRTVVSNDVK | GNVAGTIDV | 0.57 / 0.17 / 0.16 / 0.32 / 0.07 / 0.27 | 0.26 | 0 of 18 |
| GKQLDEYGIS | VIYADGKRTHYVENVK | GQFGGNLFD | ND / ND / ND / ND / ND / ND | ND | 0 of 18 |
| GFNLDEYGVS | VIYADGQRTYYAQDVK | GKTGDHLFI | ND / ND / ND / ND / ND / ND | ND | 0 of 18 |
| GFDLNEYGIS | VIYADGQRKSYADSFK | GRWSGQVIM | ND / ND / ND / ND / 4.65 / 3.28 | 3.97 | 1 of 18 (2.66) |
| GNDIQEYGIS | VIYADGQRVNAVSQVK | GKQAGTFNL | ND / ND / ND / ND / ND / ND | ND | 0 of 18 |
| GFNLAEYGIS | VIYADGRRVAYANAVK | GKNGENFSF | ND / ND / ND / ND / ND / ND | ND | 0 of 18 |
| GFDLQEMGIS | VIYADGARKSYTNSVK | GGFGGQMDV | ND / ND / ND / ND / ND / ND | ND | 0 of 18 |
| GFSLNEYGIS | VIYADGKRSFYADSVK | GLISGFFDI | ND / ND / 1.59 / ND / ND / ND | 1.59 | 0 of 18 |
| GEDLDSYGIS | VIYADGLRTVYSDNFK | GNLGGQFDM | ND / ND / ND / ND / ND / ND | ND | 0 of 18 |
| GFNINEYGIS | VIYADGQRLSYDDNVK | GGITGTFLS | ND / ND / ND / ND / ND / ND | ND | 0 of 18 |
| GFDLTEYGIS | VIYADGVRNHYADNVK | GKSDGTNML | ND / ND / ND / ND / ND / ND | ND | 1 of 18 (2.11) |
| GDSLDEYGIS | VIYADGQRSFYADSVK | GEHDGLMFQ | ND / ND / ND / ND / ND / ND | ND | 2 of 18 (2.40) |

Source: Li et al. 2023 (doi:10.1038/s41467-023-39022-2), MIT Lincoln Laboratory and A-Alpha Bio; data file from the FLAb repository.